# Test results taken from US7771525B2, “Water-soluble azo compound or salt thereof, ink composition and colored product” (Nippon Kayaku Kabushiki Kaisha, priority 2006, dated 2010).
# Details: pH 8
smiles,measurement,value
COc1cc(N=Nc2cccc(S(=O)(=O)O)c2)ccc1NC(=O)Nc1ccc(N=Nc2cccc(S(=O)(=O)O)c2)cc1OC [C.I. Direct Yellow 132],solubility in water,50 to 100 mg/mL
